# Molecular target: Retinoic acid receptor alpha (Mus musculus, UniProt P11416)
# Sequences of proteins named here, by UniProt entry; tags and fusion partners are left off.
# UniProt P11416, whole entry: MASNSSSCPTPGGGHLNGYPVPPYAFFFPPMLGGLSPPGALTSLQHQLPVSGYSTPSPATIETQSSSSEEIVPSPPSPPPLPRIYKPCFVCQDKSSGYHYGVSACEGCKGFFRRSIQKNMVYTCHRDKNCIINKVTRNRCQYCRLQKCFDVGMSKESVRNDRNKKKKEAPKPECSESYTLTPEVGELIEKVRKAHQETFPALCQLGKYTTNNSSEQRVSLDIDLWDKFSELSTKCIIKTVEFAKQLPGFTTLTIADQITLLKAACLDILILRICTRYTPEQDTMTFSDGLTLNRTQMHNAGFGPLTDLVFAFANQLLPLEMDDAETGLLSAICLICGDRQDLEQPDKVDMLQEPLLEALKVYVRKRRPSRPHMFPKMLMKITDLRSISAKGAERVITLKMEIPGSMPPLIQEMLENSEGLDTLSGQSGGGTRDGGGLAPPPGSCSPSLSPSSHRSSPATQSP
# Assay: Dissociation constant for binding to Retinoic acid receptor alpha
# Format: single protein
# Summary of the method: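 Competitive binding assays against each receptor subtype, with Kd values taken from competition.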
row,SMILES,Kd
1,CC1=C(/C=C/C(C)=C\C=C\C(C)=C\C(=O)O)C(C)(C)CCC1 [ALITRETINOIN],7 nM
2,CC1=C(/C=C/C(C)=C/C=C/C(C)=C/C(=O)O)C(C)(C)CCC1 [TRETINOIN],15 nM

# — ChEMBL document CHEMBL1129630, “Synthesis and structure-activity relationships of retinoid X receptor selective diaryl sulfide analogs of retinoic acid” (J Med Chem, 1996)
